Two molecules from patent US11001561B2, “Pyrimidinone derivatives as SHP2 antagonists” (MERCK PATENT GMBH, priority 2019, dated 2021) can be followed below.

Amino acid sequences for entries named in this document (tags omitted). A change or cut given only in a name is not applied to a line headed by its entry.
UniProt Q12809: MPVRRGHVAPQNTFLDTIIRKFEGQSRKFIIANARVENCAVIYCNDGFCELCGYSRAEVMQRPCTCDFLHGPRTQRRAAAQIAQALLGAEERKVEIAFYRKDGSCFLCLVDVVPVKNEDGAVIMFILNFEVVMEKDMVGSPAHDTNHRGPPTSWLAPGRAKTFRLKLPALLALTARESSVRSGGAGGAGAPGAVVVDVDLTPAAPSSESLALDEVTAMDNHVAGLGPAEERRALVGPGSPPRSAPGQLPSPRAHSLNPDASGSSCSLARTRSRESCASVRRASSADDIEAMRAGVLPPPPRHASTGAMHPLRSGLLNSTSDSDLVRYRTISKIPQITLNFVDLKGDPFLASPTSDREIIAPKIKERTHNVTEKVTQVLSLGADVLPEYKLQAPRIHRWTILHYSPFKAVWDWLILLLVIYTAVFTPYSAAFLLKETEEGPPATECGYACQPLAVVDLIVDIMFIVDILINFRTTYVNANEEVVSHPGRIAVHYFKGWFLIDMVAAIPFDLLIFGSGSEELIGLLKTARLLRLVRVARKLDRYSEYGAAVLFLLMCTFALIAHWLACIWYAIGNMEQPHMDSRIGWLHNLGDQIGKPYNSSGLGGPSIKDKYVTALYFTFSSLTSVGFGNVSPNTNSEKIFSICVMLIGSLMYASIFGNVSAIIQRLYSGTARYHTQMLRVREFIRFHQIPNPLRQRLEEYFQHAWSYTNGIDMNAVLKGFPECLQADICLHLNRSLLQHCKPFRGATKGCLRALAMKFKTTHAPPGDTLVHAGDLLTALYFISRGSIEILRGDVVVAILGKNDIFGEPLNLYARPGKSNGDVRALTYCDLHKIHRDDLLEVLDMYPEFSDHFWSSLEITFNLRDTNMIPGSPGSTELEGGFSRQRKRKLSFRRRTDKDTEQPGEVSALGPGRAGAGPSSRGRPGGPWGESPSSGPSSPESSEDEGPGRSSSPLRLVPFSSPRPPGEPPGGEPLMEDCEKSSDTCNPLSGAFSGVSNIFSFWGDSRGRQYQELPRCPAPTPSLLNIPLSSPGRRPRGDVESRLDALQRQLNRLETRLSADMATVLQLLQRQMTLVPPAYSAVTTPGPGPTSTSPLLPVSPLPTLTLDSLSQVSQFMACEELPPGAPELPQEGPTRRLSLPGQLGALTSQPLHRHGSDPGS

Data set [1] addresses Kv11.1 (hERG) ion channel (Homo sapiens (Human), UniProt Q12809). Kind of data set: hERG patch clamp in Kv11.1 transfected HEK293 cells. The conditions noted are these: ratio hErg Ki / KYSE520 pERK IC50. Type of data set: cell-based. As for the experimental part:
Inhibition of the ion channel hErg (or Kv11.1) current causes QT interval prolongation resulting in potentially fatal ventricular tachyarrhythmia called Torsade de Pointes.
hERG ion channel activity was assessed using a patch clamp technique in stable Kv11.1 (hERG) transfected human embryonic kidney cell line (HEK293). Whole cell recordings were carried out with an automated patch clamp device Patchliner™ from Nanion Technologies, Munich following manufacturer recommendation. Different concentrations of the test compound or reference, quinidine, were applied to whole cells suspension and current was measured using a pulse pattern with fixed amplitudes.
A general note: hERG is a cardiac potassium channel; its block is linked to QT prolongation.

Data set [2] concerns the target Recombinant human SHP2 protein (2-593) (Homo sapiens (Human), UniProt Q06124). Kind of data set: SPR binding assay. As for the experimental part:
The immobilization buffer contained 20 mM HEPES/NaOH (pH 7.4), 150 mM NaCl, 0.05% Tween 20. Inhibitors (stored as 10 mM stock solutions in 100% DMSO) were diluted in running buffer (20 mM HEPES/NaOH pH 7.4, 150 mM NaCl, 1 mM DTT, 5 mM MgCl2 0.1 mM EGTA, 0.05% Tween 20, 2% DMSO @25° C.) and analysed with a Biacore 4000 (Biacore AB, GE Healthcare Life Sciences, Uppsala, Sweden) using a 2-fold dilution series. The highest compound concentration varied according to the expected dissociation constant, but all compounds were tested at 10 different concentrations. Interaction analysis cycles were run at 30 μL/min and consisted of a 140 s sample injection followed by 600 s of buffer flow (dissociation phase). All sensograms were evaluated by first subtracting the binding response recorded from the control surface (reference spot), followed by subtracting a buffer blank injection. To determine kinetic rate constants, data sets were fitted to a simple 1:1 interaction model including a term for mass transport using numerical integration and nonlinear curve fitting. Equilibrium analysis was performed by fitting the response at the end of the association phase to a single-site binding isotherm.
In general terms: SPR reads the build-up and loss of mass on a sensor chip optically.

The nature of data set [3]: Pharmacokinetics in mouse (oral / intravenous). In kind it is in vivo. Conditions: female CD1 mice. As for the experimental part:
Female CD1 mice (N=3) received a single oral (gavage) or a single intravenous (bolus) injection of compound. […] Consecutive blood samples were taken sub-lingually under isofluorane inhalation from animals after 0.083 (IV), 0.25, 0.5, 1, 2, 4, 6 and 24 h and were further processed to obtain plasma. Samples were protein precipitated and analysed by LC/MS/MS.

The residence time is how long the partners stay bound on average. Turning to `Cc1c(N2CCC3(CC2)CO[C@@H](C)[C@H]3N)nc(C)n(-c2cccc(Cl)c2Cl)c1=O` (single isomer, unassigned) [Compound 23b], the “Split between hErg and cell activity Ki (patch Clamp)/IC50 (KYSE)” value in data set [1] was determined as 136. Moreover, the “kon [1/MS]” value in data set [2] (SPR, 25° C.) is recorded as 249000 1/MS. Also, the residence time in data set [2] (read-out: Residence time [min]) was 9.3 min. Also, the koff in data set [2] (read-out: koff [1/s]) came to 0.0018 s⁻¹.

The molecule `CC1(N)CCN(c2cnc(-c3cccc(Cl)c3Cl)c(N)n2)CC1` [SHP-099, reference compound] displayed a Fz in data set [3] of 74%.
